# AlphaSeq binding of Ab-14 heavy chain variants to a spike HR2 peptide

Data: MIT Lincoln Laboratory AlphaSeq set, Engelhart et al. 2022, doi:10.1038/s41597-022-01779-4, as distributed in FLAb.

All variants were tested on one target, the spike HR2 peptide PDVDLGDISGINAS (SARS-CoV-2).

Each scFv is VH, the linker GGGGSGGGGSGGGGS, VL, as in the parent Ab-14, and differs from it in the CDRs of the heavy chain only.
VH: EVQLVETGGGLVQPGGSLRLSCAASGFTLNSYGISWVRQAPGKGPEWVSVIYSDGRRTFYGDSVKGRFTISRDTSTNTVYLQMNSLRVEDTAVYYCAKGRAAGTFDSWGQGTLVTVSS
VL: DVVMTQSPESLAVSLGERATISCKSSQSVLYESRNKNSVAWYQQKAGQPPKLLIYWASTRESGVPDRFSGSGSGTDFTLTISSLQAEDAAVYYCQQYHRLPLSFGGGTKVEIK

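The parent was found by panning a naive human phage display library on the peptide. AAYL49 was designed without a model: most single CDR substitutions and a random sample of double and triple ones. The assay is AlphaSeq: two haploid yeast populations carry antibody and antigen on their surface. Pairs that bind mate more often; barcode pairs of the diploids are counted by sequencing. Each replicate has its own calibration line, from reference interactions of the BCL2 family. Mating was done three times.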

Positions count from residue 1 of the parent VH; I51E puts E in place of I. Numbers give log10(Kd / nM), so 0 is 1 nM and 3 is 1 µM. Smaller is tighter. A mean of the replicates is given; it leaves out those without a signal. A pair that was not seen in that replicate is written "n.d."; this usually means weak binding, but a binder can also be missed. For reference, the parent read 0.65 as the reference entry and 4.11 (one replicate of three) as a member of this library. Nonspecific signal, from three strains lacking the peptide, appeared in 15% of pairings of library AAYL49, centred on 4.06 (5% of these signals below 2.83); values are not corrected for it. For each scFv, signals with the empty controls are counted beside the result, with their mean in brackets.

| # | changes | log10 Kd (nM) by replicate | mean, log10 nM | control signals |
|---|---|---|---|---|
| 1 | I51E/Y60T | n.d. / 2.97 / n.d. | 2.97 | 1 of 9 (4.63) |
| 2 | R56Q/V64H/G99H | n.d. / 2.79 / n.d. | 2.79 | 3 of 9 (3.87) |
| 3 | G55V/S63D/A101Q | n.d. / n.d. / 4.39 | 4.39 | 0 of 9 |
| 4 | F27K/S35D/F105P | 3.96 / n.d. / 4.13 | 4.04 | 2 of 9 (3.96) |
| 5 | S35Y/D62F/K65S | n.d. / n.d. / n.d. | n.d. | 1 of 9 (4.95) |
| 6 | G26T/G55S/R100W | n.d. / n.d. / n.d. | n.d. | 1 of 9 (2.19) |
| 7 | G26T/Y60V/A101S | n.d. / n.d. / n.d. | n.d. | 1 of 9 (3.74) |
| 8 | L29C/V50M/I51E | n.d. / 4.96 / 5.60 | 5.28 | 1 of 9 (4.38) |
| 9 | N30Q/I34K/G99R | 2.10 / 2.07 / 2.23 | 2.13 | 6 of 9 (4.73) |
| 10 | V50L/R56H/T58R | n.d. / n.d. / 4.54 | 4.54 | 3 of 9 (4.29) |
| 11 | S35E/Y60R/A101W | n.d. / n.d. / 3.38 | 3.38 | 1 of 9 (2.95) |
| 12 | G26K/R56P/R57H | n.d. / n.d. / 3.40 | 3.40 | 0 of 9 |
| 13 | R57D/S63D/A102D | 5.46 / n.d. / n.d. | 5.46 | 3 of 9 (4.68) |
| 14 | Y32F/F59Y/D106I | n.d. / n.d. / 3.90 | 3.90 | 1 of 9 (2.63) |
| 15 | R57Q/F59S | 1.66 / 1.89 / 2.38 | 1.98 | 5 of 9 (4.08) |
| 16 | T28M/I34E/T58I | 5.74 / 3.68 / 3.81 | 4.41 | 4 of 9 (4.56) |
| 17 | I34W/R57W/F59W | n.d. / 2.99 / n.d. | 2.99 | 0 of 9 |
| 18 | R57E/D62K | n.d. / n.d. / n.d. | n.d. | 2 of 9 (3.45) |
| 19 | L29N/G55R/K65L | 5.27 / 4.67 / 5.08 | 5.01 | 6 of 9 (4.96) |
| 20 | V50P/D54P/V64E | n.d. / n.d. / n.d. | n.d. | 1 of 9 (3.49) |
| 21 | L29V/V64H/R100N | 4.74 / 3.06 / n.d. | 3.90 | 2 of 9 (4.06) |
| 22 | Y32W/F59D/A102K | n.d. / n.d. / n.d. | n.d. | 0 of 9 |
| 23 | T28Q/V50I/S63V | n.d. / n.d. / n.d. | n.d. | 0 of 9 |
| 24 | Y32D/R57Q/S63Y | n.d. / n.d. / n.d. | n.d. | 1 of 9 (3.91) |
| 25 | G33E/I51E/V64C | n.d. / n.d. / n.d. | n.d. | 1 of 9 (4.52) |
| 26 | F59G/Y60M/G99T | 3.04 / 1.68 / 2.72 | 2.48 | 0 of 9 |
| 27 | Y52E/G103W | n.d. / n.d. / n.d. | n.d. | 1 of 9 (3.31) |
| 28 | S53A/R57T/G61M | 0.98 / 1.08 / 1.09 | 1.05 | 2 of 9 (4.69) |
| 29 | D54I/V64H/K65F | 4.09 / 4.60 / 4.41 | 4.37 | 6 of 9 (4.08) |
| 30 | Y52A/D54E/V64M | n.d. / n.d. / n.d. | n.d. | 0 of 9 |
| 31 | G26L | 1.86 / 1.97 / 2.06 | 1.96 | 1 of 9 (2.60) |
| 32 | Y32T/R56S/A101L | n.d. / n.d. / n.d. | n.d. | 0 of 9 |
| 33 | T28D/G99R | n.d. / 4.36 / n.d. | 4.36 | 1 of 9 (2.79) |
| 34 | G33R/D106T | n.d. / n.d. / n.d. | n.d. | 2 of 9 (3.97) |
| 35 | S53M/G61Y/G99W | n.d. / 3.55 / 4.44 | 3.99 | 2 of 9 (5.06) |
| 36 | F27G/A102F/G103W | n.d. / n.d. / n.d. | n.d. | 0 of 9 |
| 37 | N30L/G55C/S63C | n.d. / 3.96 / n.d. | 3.96 | 0 of 9 |
| 38 | G61A/A102D/D106Q | 0.98 / 1.09 / 0.54 | 0.87 | 0 of 9 |
| 39 | S31V/F105L/D106N | 1.80 / 1.66 / 2.03 | 1.83 | 0 of 9 |
| 40 | G33K/F59I | n.d. / n.d. / n.d. | n.d. | 0 of 9 |
| 41 | Y52T/V64D/D106V | n.d. / n.d. / n.d. | n.d. | 3 of 9 (3.08) |
| 42 | T58H/Y60H/A102P | n.d. / n.d. / n.d. | n.d. | 0 of 9 |
| 43 | G33D/V50D/I51G | n.d. / 5.23 / 5.75 | 5.49 | 1 of 9 (2.50) |
| 44 | D54R/G99Y/S107L | 5.22 / n.d. / n.d. | 5.22 | 1 of 9 (4.04) |
| 45 | N30Y/G99V/A101E | n.d. / n.d. / n.d. | n.d. | 0 of 9 |

From the list, the first 5 with no signal in any replicate:

{"changes": "S35Y/D62F/K65S", "log10 Kd (nM) by replicate": "n.d. / n.d. / n.d.", "mean, log10 nM": "n.d.", "control signals": "1 of 9 (4.95)"}
{"changes": "G26T/G55S/R100W", "log10 Kd (nM) by replicate": "n.d. / n.d. / n.d.", "mean, log10 nM": "n.d.", "control signals": "1 of 9 (2.19)"}
{"changes": "G26T/Y60V/A101S", "log10 Kd (nM) by replicate": "n.d. / n.d. / n.d.", "mean, log10 nM": "n.d.", "control signals": "1 of 9 (3.74)"}
{"changes": "R57E/D62K", "log10 Kd (nM) by replicate": "n.d. / n.d. / n.d.", "mean, log10 nM": "n.d.", "control signals": "2 of 9 (3.45)"}
{"changes": "V50P/D54P/V64E", "log10 Kd (nM) by replicate": "n.d. / n.d. / n.d.", "mean, log10 nM": "n.d.", "control signals": "1 of 9 (3.49)"}